Results taken from patent US9796764B2, “Cyclotide genes in the fabaceae plant family” (The University of Queensland, priority 2011, dated 2017).

Test: Haemolytic activity assay
Format: cell-based
Conditions: washed human red blood cells; % of maximum lysis (1% Triton X-100); read-out: haemolytic dose necessary to lyse 50% of the RBCs (HD50)
Protocol: Serially diluted peptide solutions were incubated with washed human red blood cells. Following incubation, the supernatant was transferred before the UV absorbance was measured. The amount of haemolysis was calculated as the percentage of maximum lysis (1% Triton X-100 control) after adjusting for minimum lysis (PBS control). Synthetic melittin was used for comparison. The haemolytic dose necessary to lyse 50% of the RBCs (HD50) was calculated using the regression constant from the linear portion of the haemolytic titration curve (Graphpad Prism software).

`CC[C@H](C)[C@H](NC(=O)CN)C(=O)NCC(=O)N[C@@H](C)C(=O)N[C@H](C(=O)N[C@@H](CC(C)C)C(=O)N[C@@H](CCCCN)C(=O)N[C@H](C(=O)N[C@@H](CC(C)C)C(=O)N[C@H](C(=O)N[C@H](C(=O)NCC(=O)N[C@@H](CC(C)C)C(=O)N1CCC[C@H]1C(=O)N[C@@H](C)C(=O)N[C@@H](CC(C)C)C(=O)N[C@H](C(=O)N[C@@H](CO)C(=O)N[C@@H](Cc1c[nH]c2ccccc12)C(=O)N[C@H](C(=O)N[C@@H](CCCCN)C(=O)N[C@@H](CCCNC(=N)N)C(=O)N[C@@H](CCCCN)C(=O)N[C@@H](CCCNC(=N)N)C(=O)N[C@@H](CCC(N)=O)C(=O)N[C@@H](CCC(N)=O)C(N)=O)[C@@H](C)CC)[C@@H](C)CC)[C@@H](C)O)[C@@H](C)O)C(C)C)C(C)C` [melittin, reference compound] gave an HC50 of 1400 nM.
